Measured values as given in article PMC6923863 (BMC Pharmacology & Toxicology, 2019).
pIC50: −log10 of the molar value.

By UniProt entry, the sequences of proteins in these tests, tags left out.
UniProt P35372, whole entry: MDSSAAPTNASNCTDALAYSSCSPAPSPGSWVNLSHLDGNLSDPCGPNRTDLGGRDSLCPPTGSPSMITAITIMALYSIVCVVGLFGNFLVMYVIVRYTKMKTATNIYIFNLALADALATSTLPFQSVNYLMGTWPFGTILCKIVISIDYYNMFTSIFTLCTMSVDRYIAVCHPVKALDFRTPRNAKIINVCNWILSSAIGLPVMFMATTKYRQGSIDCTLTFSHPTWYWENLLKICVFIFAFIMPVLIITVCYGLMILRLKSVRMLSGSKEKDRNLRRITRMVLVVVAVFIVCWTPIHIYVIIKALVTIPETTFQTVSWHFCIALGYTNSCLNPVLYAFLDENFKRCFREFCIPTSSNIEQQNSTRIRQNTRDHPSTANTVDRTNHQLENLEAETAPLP
UniProt P23975, whole entry: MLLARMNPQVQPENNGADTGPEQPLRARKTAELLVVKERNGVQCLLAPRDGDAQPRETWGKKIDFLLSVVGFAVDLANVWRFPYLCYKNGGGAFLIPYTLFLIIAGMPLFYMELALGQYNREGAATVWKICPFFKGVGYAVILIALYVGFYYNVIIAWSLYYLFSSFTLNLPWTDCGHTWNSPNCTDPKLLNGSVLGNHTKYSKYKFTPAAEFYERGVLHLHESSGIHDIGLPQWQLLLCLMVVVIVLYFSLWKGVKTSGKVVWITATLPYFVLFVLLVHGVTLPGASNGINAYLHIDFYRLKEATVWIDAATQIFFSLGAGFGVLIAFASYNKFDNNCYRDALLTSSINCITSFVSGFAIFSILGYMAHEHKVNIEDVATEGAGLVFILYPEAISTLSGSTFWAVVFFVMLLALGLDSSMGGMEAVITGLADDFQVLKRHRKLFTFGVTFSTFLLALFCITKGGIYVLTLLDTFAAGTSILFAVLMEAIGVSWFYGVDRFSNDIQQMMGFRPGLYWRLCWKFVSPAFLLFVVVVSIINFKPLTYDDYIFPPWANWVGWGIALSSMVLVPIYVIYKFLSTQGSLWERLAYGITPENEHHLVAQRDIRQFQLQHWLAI

Legend:
Experiment in all cases: biochemical
δ1 Opiate Receptor = δ1 Opiate Receptor (Homo sapiens, UniProt P41143)
μ Opiate Receptor = μ Opiate Receptor (Homo sapiens, UniProt P35372)
[1] = target: Norepinephrine Uptake Site (Homo sapiens, UniProt P23975)
[2] = read-out: Percent Inhibition at 10 μM

CNC1(c2ccccc2Cl)CCCCC1=O (stereo not drawn) [Ketamine]
pIC50 (δ1 Opiate Receptor): < 5.00 | inhibition at 10 µM (δ1 Opiate Receptor; [2]): < 15% | pIC50 (μ Opiate Receptor): < 5.00 | inhibition at 10 µM (μ Opiate Receptor; [2]): < 15% | pIC50 [1]: < 5.00 | inhibition at 10 µM [1, 2]: 23%
